## Antibody variant affinities, Ab-14 heavy chain, assay B

The measurements come from Li et al. 2023 (doi:10.1038/s41467-023-39022-2) through the FLAb antibody collection.

The target is the same throughout: PDVDLGDISGINAS, from the HR2 region of SARS-CoV-2 spike.

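These sequences belong to a second round, designed from the earlier measurements on random variants of the parent. Their group label is 14H_GPLM_HC (GPLM: also part of the Gaussian process libraries; HC: hill climbing; a sequence that several methods proposed may carry one label only). The assay is AlphaSeq: two haploid yeast populations carry antibody and antigen on their surface. Pairs that bind mate more often; barcode pairs of the diploids are counted by sequencing. Read counts were normalised to the haploid input and turned into Kd by a linear fit to BCL2-family pairs of known affinity, for each replicate. Each pool was mated in six replicate cultures.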

Ab-14 is the parent antibody, in scFv form: VH, then three GGGGS repeats, then VL. The light chain is unchanged in all variants.
VH: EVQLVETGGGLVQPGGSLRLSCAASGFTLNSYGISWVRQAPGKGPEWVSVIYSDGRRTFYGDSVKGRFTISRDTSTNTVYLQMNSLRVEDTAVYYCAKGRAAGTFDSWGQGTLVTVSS
VL: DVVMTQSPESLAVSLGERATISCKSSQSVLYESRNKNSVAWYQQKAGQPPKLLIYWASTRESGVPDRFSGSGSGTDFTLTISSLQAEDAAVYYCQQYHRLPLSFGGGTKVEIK

Substitutions are numbered in sequence along the VH above, starting at 1 (not Kabat).
The read-out is the apparent dissociation constant on a log10 scale (nM): the lower, the stronger.
"ND" means that the variant was in the library but no mating with the target was seen in that replicate; the authors take this as a sign of poor binding, and no number exists.

changes | replicates, log10 nM | empty controls
G61S+R100E+A102G+S107T | ND ND ND 1.85 ND 2.42 | 0 of 18
S31D+G61K | 1.49 0.36 0.71 0.56 0.51 2.43 | 0 of 18
G26E+G61D+R100Q+A101L | 3.06 1.87 1.49 1.70 2.37 1.47 | 0 of 18
N30E+G61S+A102G+S107T | ND 1.84 1.40 3.20 1.83 2.19 | 0 of 18
S31E+S63R+G103V+S107Q | ND ND ND ND 1.57 ND | 0 of 18
S31Q+R56M+G61S+R100Q | ND ND ND ND ND ND | 0 of 18
G61T+R100Q+A101F | ND 1.71 3.93 ND 2.41 1.24 | 2 of 18 (2.08)
L29I+G61S+A101V | 0.92 1.09 0.59 0.57 0.88 0.41 | 0 of 18
S31D+F59Q+G61I+D106V | ND ND ND 2.77 ND ND | 0 of 18
T28W+S31E+A101E | -0.26 ND ND 1.81 1.27 0.46 | 0 of 18
S31E+D106I | ND ND ND ND ND ND | 0 of 18
T28C+S31D+G61I | ND ND ND ND ND ND | 0 of 18
T28D+A101Y | 1.35 0.85 0.17 0.15 0.37 0.57 | 2 of 18 (2.29)
G61A+R100K+S107L | ND ND ND 0.90 ND 0.99 | 0 of 18
F27H+S31D+F59Q+G61I | ND ND ND ND ND ND | 0 of 18
S31D+A101V+S107K | 1.50 0.38 0.37 0.56 0.95 1.33 | 0 of 18
S31N+R56M+G61S | 1.08 0.53 0.26 0.42 0.54 0.61 | 1 of 18 (1.58)
S31D+A101T+D106I+S107Q | ND ND ND ND ND 4.24 | 0 of 18
R57K+G61D+R100K+A101L | ND ND ND ND ND ND | 0 of 18
N30D+S63G+A101T | ND 1.63 1.09 1.19 0.63 1.29 | 1 of 18 (2.21)
S31E+S107F | 1.81 1.36 0.72 1.41 1.42 1.19 | 0 of 18
S31E+D106R+S107F | ND ND ND ND ND ND | 0 of 18
T28Q+N30D | 0.47 1.25 1.18 0.50 1.35 ND | 0 of 18
S31D+G61A+A101T+D106I | ND ND ND ND ND ND | 0 of 18
T28N+G61D+R100Q+A101K | ND 2.11 ND 1.59 ND 2.95 | 0 of 18
G61D+R100Q+A101L+D106E | ND ND ND ND ND ND | 0 of 18
L29I+G61S | 2.09 1.40 1.49 1.52 2.89 2.01 | 0 of 18
S31D+G61S+T104H | ND ND ND ND ND ND | 0 of 18
S31E+G61D+A101F+S107T | 1.15 0.72 0.58 1.29 ND 1.65 | 0 of 18
R56K+G61S+R100S | 1.14 1.45 1.60 1.52 1.37 1.08 | 0 of 18
G61A+R100Q+A101L+S107R | ND 1.54 0.57 0.70 0.13 0.76 | 0 of 18
S31D+G103V+S107G | ND ND ND ND ND ND | 0 of 18
S31D+A101E+S107K | 1.81 ND ND 2.73 2.09 2.32 | 0 of 18
G61D+S63P+R100Q+A101L | ND ND ND 1.61 2.25 1.81 | 0 of 18

The first 4 variants above that were never detected:

changes | replicates, log10 nM | empty controls
S31Q+R56M+G61S+R100Q | ND ND ND ND ND ND | 0 of 18
S31E+D106I | ND ND ND ND ND ND | 0 of 18
T28C+S31D+G61I | ND ND ND ND ND ND | 0 of 18
F27H+S31D+F59Q+G61I | ND ND ND ND ND ND | 0 of 18

As a blank, each scFv also met three strains without target: over all heavy chain designs, 1% of these pairings were detected, typically at 2.08 and seldom below 0.84. For each scFv, signals with the empty controls are counted beside the result, with their mean in brackets.
In the paper, a design with two or fewer of six values counts as a poor binder.
The parent sequence was in this pool as ten entries: three were never detected, three once, and four in most replicates, with averages from 0.34 to 2.37.
The range of this assay differs from that of the first round, and the authors advise against merging the two.